Results reported in the supplement of paper PMC8728848.
Many of the other results were omitted from the sample, so the strongest signals are more common in it than they were.

Columns and labels:
Assay in all cases: glycan array binding signal (z-score within array); higher = stronger binding
Conditions in all cases: glycan notation: IUPAC condensed, linker removed
[1] = molecular target: Gal(b1-4)GlcNAc(b1-3)Gal(b1-4)GlcNAc(b1-2)Man(a1-3)[Gal(b1-4)GlcNAc(b1-3)Gal(b1-4)GlcNAc(b1-2)Man(a1-6)]Man(b1-4)GlcNAc(b1-4)GlcNAc
[2] = molecular target: Gal(b1-4)GlcNAc(b1-3)Gal(b1-4)GlcNAc(b1-2)Man(a1-3)[Gal(b1-4)GlcNAc(b1-3)Gal(b1-4)GlcNAc(b1-2)Man(a1-6)]Man(b1-4)GlcNAc(b1-4)[Fuc(a1-6)]GlcNAc
[3] = molecular target: Gal(b1-4)GlcNAc(b1-3)Gal(b1-4)GlcNAc(b1-3)Gal(b1-4)GlcNAc(b1-3)Gal(b1-4)GlcNAc(b1-3)Gal(b1-4)GlcNAc(b1-2)Man(a1-3)[Gal(b1-4)GlcNAc(b1-3)Gal(b1-4)GlcNAc(b1-3)Gal(b1-4)GlcNAc(b1-3)Gal(b1-4)GlcNAc(b1-3)Gal(b1-4)GlcNAc(b1-2)Man(a1-6)]Man(b1-4)GlcNAc(b1-4)[Fuc(a1-6)]GlcNAc
[4] = molecular target: Gal(b1-4)GlcNAc(b1-3)Gal(b1-4)GlcNAc(b1-3)Gal(b1-4)GlcNAc(b1-3)Gal(b1-4)GlcNAc(b1-3)Gal(b1-4)GlcNAc(b1-2)[Gal(b1-4)GlcNAc(b1-3)Gal(b1-4)GlcNAc(b1-3)Gal(b1-4)GlcNAc(b1-3)Gal(b1-4)GlcNAc(b1-3)Gal(b1-4)GlcNAc(b1-6)]Man(a1-6)[Gal(b1-4)GlcNAc(b1-3)Gal(b1-4)GlcNAc(b1-3)Gal(b1-4)GlcNAc(b1-3)Gal(b1-4)GlcNAc(b1-3)Gal(b1-4)GlcNAc(b1-2)Man(a1-3)]Man(b1-4)GlcNAc(b1-4)[Fuc(a1-6)]GlcNAc
[5] = molecular target: Gal(b1-4)GlcNAc(b1-3)Gal(b1-4)GlcNAc(b1-3)Gal(b1-4)GlcNAc(b1-3)Gal(b1-4)GlcNAc(b1-3)Gal(b1-4)GlcNAc(b1-3)Gal(b1-4)GlcNAc(b1-2)Man(a1-3)[Gal(b1-4)GlcNAc(b1-3)Gal(b1-4)GlcNAc(b1-3)Gal(b1-4)GlcNAc(b1-3)Gal(b1-4)GlcNAc(b1-3)Gal(b1-4)GlcNAc(b1-3)Gal(b1-4)GlcNAc(b1-2)Man(a1-6)]Man(b1-4)GlcNAc(b1-4)GlcNAc
[6] = molecular target: Gal(b1-4)GlcNAc(b1-3)Gal(b1-4)GlcNAc(b1-3)GalNAc
[7] = molecular target: Gal(b1-4)GlcNAc(b1-3)Gal(b1-4)GlcNAc(b1-6)[Gal(b1-3)]GalNAc
[8] = molecular target: Gal3S(b1-3)[Fuc(a1-4)]GlcNAc
[9] = molecular target: GlcNAc(a1-4)Gal(b1-3)GlcNAc
[10] = molecular target: GlcNAc(b1-2)[GlcNAc(b1-6)]Man(a1-6)[GlcNAc(b1-4)][GlcNAc(b1-2)Man(a1-3)]Man(b1-4)GlcNAc(b1-4)GlcNAc
[11] = molecular target: GlcNAc(b1-3)Gal(b1-4)GlcNAc(b1-2)[GlcNAc(b1-3)Gal(b1-4)GlcNAc(b1-6)]Man(a1-6)[GlcNAc(b1-3)Gal(b1-4)GlcNAc(b1-2)Man(a1-3)]Man(b1-4)GlcNAc(b1-4)GlcNAc
[12] = molecular target: GlcNAc(b1-3)Gal(b1-4)GlcNAc(b1-3)Gal(b1-4)GlcNAc(b1-3)Gal(b1-4)GlcNAc(b1-3)Gal(b1-4)GlcNAc(b1-2)Man(a1-3)[GlcNAc(b1-3)Gal(b1-4)GlcNAc(b1-3)Gal(b1-4)GlcNAc(b1-3)Gal(b1-4)GlcNAc(b1-3)Gal(b1-4)GlcNAc(b1-2)Man(a1-6)]Man(b1-4)GlcNAc(b1-4)[Fuc(a1-6)]GlcNAc
[13] = molecular target: Man(a1-2)Man(a1-2)Man(a1-6)[Man(a1-3)]Man
Man(a1-3)[Man(a1-6)]Man = molecular target: Man(a1-3)[Man(a1-6)]Man
[14] = molecular target: Man(a1-3)[Man(a1-6)]Man(b1-4)GlcNAc(b1-4)[Fuc(a1-6)]GlcNAc
[15] = molecular target: Neu5Ac(a2-3)Gal(b1-3)GalNAc(b1-4)[Neu5Ac(a2-3)]Gal(b1-4)Glc
[16] = molecular target: Neu5Ac(a2-3)Gal(b1-3)GlcNAc(b1-3)Gal(b1-3)GlcNAc
[17] = molecular target: Neu5Ac(a2-3)Gal(b1-4)GlcNAc(b1-2)Man(a1-3)[Neu5Ac(a2-3)Gal(b1-4)GlcNAc(b1-2)Man(a1-6)]Man(b1-4)GlcNAc(b1-4)GlcNAc
[18] = molecular target: Neu5Ac(a2-3)Gal(b1-4)GlcNAc(b1-2)[Neu5Ac(a2-3)Gal(b1-4)GlcNAc(b1-6)]Man(a1-6)[Neu5Ac(a2-3)Gal(b1-4)GlcNAc(b1-2)Man(a1-3)][GlcNAc(b1-4)]Man(b1-4)GlcNAc(b1-4)GlcNAc
[19] = molecular target: Neu5Ac(a2-3)Gal(b1-4)GlcNAc(b1-6)GalNAc
[20] = molecular target: Neu5Ac(a2-3)[GalNAc(b1-4)]Gal(b1-4)GlcNAc(b1-3)GalNAc
[21] = molecular target: Neu5Ac(a2-6)Gal(b1-4)GlcNAc(b1-2)[Neu5Ac(a2-6)Gal(b1-4)GlcNAc(b1-4)]Man(a1-3)[GlcNAc(b1-4)][Neu5Ac(a2-6)Gal(b1-4)GlcNAc(b1-2)[Neu5Ac(a2-6)Gal(b1-4)GlcNAc(b1-6)]Man(a1-6)]Man(b1-4)GlcNAc(b1-4)GlcNAc
[22] = molecular target: Neu5Ac(a2-6)Gal(b1-4)GlcNAc(b1-2)[Neu5Ac(a2-6)Gal(b1-4)GlcNAc(b1-4)]Man(a1-3)[GlcNAc(b1-4)][Neu5Ac(a2-6)Gal(b1-4)GlcNAc(b1-4)Man(a1-6)]Man(b1-4)GlcNAc(b1-4)GlcNAc
[23] = molecular target: Neu5Ac(a2-6)Gal(b1-4)GlcNAc(b1-2)[Neu5Ac(a2-6)Gal(b1-4)GlcNAc(b1-6)]Man(a1-6)[Neu5Ac(a2-6)Gal(b1-4)GlcNAc(b1-2)Man(a1-3)][GlcNAc(b1-4)]Man(b1-4)GlcNAc(b1-4)GlcNAc
[24] = molecular target: Neu5Ac(a2-8)Neu5Ac(a2-3)Gal(b1-3)GalNAc(b1-4)[Neu5Ac(a2-8)Neu5Ac(a2-3)]Gal(b1-4)Glc
Neu5Gc(a2-3)Gal(b1-4)Glc = molecular target: Neu5Gc(a2-3)Gal(b1-4)Glc

B1: Gal 7 (Mus musculus) (protein)
chain: MSPILGYWKIKGLVQPTRLLLEYLEEKYEEHLYERDEGDKWRNKKFELGLEFPNLPYYIDGDVKLTQSMAIIRYIADKHNMLGGCPKERAEISMLEGAVLDIRYGVSRIAYSKDFETLKVDFLSKLPEMLKMFEDRLCHKTYLNGDHVTHPDFMLYDALDVVLYMDPMCLDAFPKLVCFKKRIEAIPQIDKYLKSSKYIAWPLQGWQATFGGGDHPPKSDLVPRGSMSATHHKTSLPQGVRVGTVMRIRGMVPDQAGRFHVNLLCGEEQGADAALHFNPRLDTSEVVFNTKEQGKWGREERGTGIPFERGQPFEVLLIATEEGFKAVVGDDEYLHFHHRMPPARVRLVEVGGDVQLHSLNIF
Question: With B1 as the binder, how does the “glycan array binding signal (z-score)” value [1] read?
Answer: 0.489

Question: What about the “glycan array binding signal (z-score)” value [2] of the same binder?
Answer: 1.06

Question: And the “glycan array binding signal (z-score)” value [3]?
Answer: 2.7

Question: And the “glycan array binding signal (z-score)” value [4]?
Answer: 4.22

Question: And the “glycan array binding signal (z-score)” value [5]?
Answer: 2.7

Question: What about the “glycan array binding signal (z-score)” value [6] of the same binder?
Answer: 0.003

Question: And the “glycan array binding signal (z-score)” value [7]?
Answer: 0.039

Question: And the “glycan array binding signal (z-score)” value [8]?
Answer: -0.356

Question: What about the “glycan array binding signal (z-score)” value [9] of the same binder?
Answer: -0.372

Question: And the “glycan array binding signal (z-score)” value [10]?
Answer: -0.304

Question: And the “glycan array binding signal (z-score)” value [11]?
Answer: -0.242

Question: And the “glycan array binding signal (z-score)” value [12]?
Answer: 0.643

Question: And the “glycan array binding signal (z-score)” value [13]?
Answer: -0.347

Question: What about the “glycan array binding signal (z-score)” value (Man(a1-3)[Man(a1-6)]Man) of the same binder?
Answer: -0.302

Question: What about the “glycan array binding signal (z-score)” value [14] of the same binder?
Answer: -0.341

Question: What about the “glycan array binding signal (z-score)” value [15] of the same binder?
Answer: -0.321

Question: What about the “glycan array binding signal (z-score)” value [16] of the same binder?
Answer: 0.779

Question: What about the “glycan array binding signal (z-score)” value [17] of the same binder?
Answer: -0.094

Question: What about the “glycan array binding signal (z-score)” value [18] of the same binder?
Answer: -0.077

Question: And the “glycan array binding signal (z-score)” value [19]?
Answer: -0.381

Question: And the “glycan array binding signal (z-score)” value [20]?
Answer: -0.2

Question: And the “glycan array binding signal (z-score)” value [21]?
Answer: -0.398

Question: What about the “glycan array binding signal (z-score)” value [22] of the same binder?
Answer: -0.344

Question: What about the “glycan array binding signal (z-score)” value [23] of the same binder?
Answer: -0.315

Question: And the “glycan array binding signal (z-score)” value [24]?
Answer: -0.31

Question: And the “glycan array binding signal (z-score)” value (Neu5Gc(a2-3)Gal(b1-4)Glc)?
Answer: -0.307
